Experimental data published in patent publication US20100210617A1, “Aryl-Alkylamines And Heteroaryl-Alkylamines As Protein Kinase Inhibitors” (ASTEX THERAPEUTICS LIMITED, priority 2005, published 2010).

Legend:
PKA catalytic domain = molecular target: T1, PKA catalytic domain (Homo sapiens, UniProt P17612); assay: Measurement of PKA kinase inhibitory activity (IC50); type: biochemical; details: 1 nM enzyme, 40 μM ATP/γ33P-ATP, 5 μM peptide substrate GRTGRRNSI, 20 minutes; read-out: IC50, concentration required to inhibit 50% of the PKA activity
T1 construct: using the PKA catalytic domain from Upstate Biotechnology (#14-440); purchased Upstate Biotechnology 14-440
Experimental: A final concentration of 1 nM enzyme is used in a buffer that includes 20 mM MOPS pH 7.2, 40 μM ATP/γ^33P-ATP and 5 μM substrate. Compounds are added in dimethylsulphoxide (DMSO) solution to a final DMSO concentration of 2.5%. The reaction is allowed to proceed for 20 minutes before addition of excess orthophosphoric acid to quench activity. Unincorporated γ^33P-ATP is then separated from phosphorylated proteins on a Millipore MAPH filter plate. The plates are washed, scintillant is added and the plates are then subjected to counting on a Packard Topcount.

[1] = molecular target: T2, protein kinase B (PKB), fusion protein PKB-PIF (Homo sapiens, UniProt P31751); assay: Measurement of PKB kinase inhibitory activity (IC50); type: biochemical
T2 construct: made in house
Experimental: The inhibition of protein kinase B (PKB) activity by compounds can be determined essentially as described by Andjelkovic et al. (Mol. Cell. Biol. 19, 5061-5072 (1999)) but using a fusion protein described as PKB-PIF and described in full by Yang et al (Nature Structural Biology 9, 940-944 (2002)). […] A final concentration of 0.6 nM enzyme is used in a buffer that includes 20 mM MOPS pH 7.2, 30 μM ATP/γ^33P-ATP and 25 μM substrate. Compounds are added in DMSO solution to a final DMSO concentration of 2.5%. The reaction is allowed to proceed for 20 minutes before addition of excess orthophosphoric acid to quench activity. The reaction mixture is transferred to a phosphocellulose filter plate where the peptide binds and the unused ATP is washed away. After washing, scintillant is added and the incorporated activity measured by scintillation counting.
The % inhibition of the PKB activity is calculated and plotted in order to determine the concentration of test compound required to inhibit 50% of the PKB activity (IC50).

Cc1n[nH]cc1-c1ccc(C(O)(CN)c2ccccc2)cc1 (centres unmarked) [Example 78, 2-Amino-1-[4-(3-methyl-1H-pyrazol-4-yl)-phenyl]-1-phenyl-ethanol]
IC50 (PKA catalytic domain): < 1 µM
IC50 [1]: < 1 µM
